CycPeptMPDB entries from one study

Values of Townsend et al. 2020, doi:10.26434/chemrxiv.13335941.v1, as listed in CycPeptMPDB.

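Lipid, pH, incubation time, direction and concentration are not recorded in the data file. Other peptides of the study may be missing here. Peptides that the database sets to -10, its floor, are left out.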

PAMPA measures passive passage through an artificial lipid membrane. P is given in units of 10^-6 cm/s (from log10 values with two decimals); larger means faster passage.

CCCN1CC(=O)N(C)[C@@H](CC(C)C)C(=O)N(C)[C@H](CC(C)C)C(=O)N2CCC[C@@H]2C(=O)N(Cc2ccccc2)CC(=O)N[C@@H](Cc2ccccc2)C1=O has PAMPA 7.9 × 10^-6 cm/s.
CCCN1CC(=O)N[C@H](CC(C)C)C(=O)N[C@H](CC(C)C)C(=O)N2CCC[C@@H]2C(=O)N(C)[C@@H](CC(C)C)C(=O)N[C@@H](Cc2ccccc2)C1=O has PAMPA 3.4 × 10^-6 cm/s.
CC(C)C[C@H]1NC(=O)[C@H]2CCCN2C(=O)[C@@H](CC(C)C)NC(=O)[C@H](CC(C)C)N(C)C(=O)[C@@H](C)N(C)C(=O)[C@H](Cc2ccccc2)NC1=O has PAMPA 6.6 × 10^-6 cm/s.
CC(C)C[C@H]1NC(=O)[C@H](C)NC(=O)[C@H](Cc2ccccc2)NC(=O)CN(Cc2ccccc2)C(=O)[C@H]2CCCN2C(=O)[C@H](CC(C)C)N(C)C1=O has PAMPA 3.5 × 10^-6 cm/s.
CC(C)C[C@@H]1C(=O)N[C@@H](Cc2ccccc2)CC(=O)N2CCC[C@H]2C(=O)N(C)[C@@H](CC(C)C)C(=O)N[C@@H](Cc2ccccc2)C(=O)N2CCC[C@H]2C(=O)N(C)[C@@H](C)C(=O)N1C has PAMPA 3.2 × 10^-6 cm/s.
CC(C)C[C@@H]1NC(=O)[C@@H](C)N(C)C(=O)[C@H](Cc2ccccc2)NC(=O)[C@@H](CC(C)C)NC(=O)[C@@H]2CCCN2C(=O)[C@@H](CC(C)C)NC1=O has PAMPA 0.76 × 10^-6 cm/s.
CC(C)C[C@@H]1C(=O)N[C@@H](Cc2ccccc2)C(=O)N2CCC[C@H]2C(=O)N(C)[C@H](C)C(=O)N(C)[C@@H](CC(C)C)C(=O)N[C@@H](Cc2ccccc2)CC(=O)N2CCC[C@@H]2C(=O)N1C has PAMPA 1.7 × 10^-6 cm/s.
CC(C)C[C@@H]1NC(=O)C[C@H](Cc2ccccc2)NC(=O)[C@H](Cc2ccccc2)NC(=O)[C@H](CC(C)C)N(C)C(=O)[C@@H]2CCCN2C(=O)[C@@H](CC(C)C)N(C)C1=O has PAMPA 6 × 10^-6 cm/s.
CCCN1CC(=O)N[C@H](CC(C)C)C(=O)N(C)[C@@H](CC(C)C)C(=O)N2CCC[C@@H]2C(=O)N[C@H](CC(C)C)C(=O)N[C@@H](Cc2ccccc2)C(=O)N2CCC[C@@H]2C1=O has PAMPA 2.2 × 10^-6 cm/s.
CC(C)C[C@@H]1NC(=O)[C@@H](C)NC(=O)[C@H](Cc2ccccc2)NC(=O)[C@@H](CC(C)C)NC(=O)[C@H]2CCCN2C(=O)CN(Cc2ccccc2)C1=O has PAMPA 1 × 10^-6 cm/s.
CC(C)C[C@@H]1NC(=O)[C@H]2CCCN2C(=O)[C@H](CC(C)C)NC(=O)[C@@H](CC(C)C)N(C)C(=O)[C@H](C)N(C)C(=O)[C@H]2CCCN2C(=O)[C@H](Cc2ccccc2)NC1=O has PAMPA 0.81 × 10^-6 cm/s.
CC(C)C[C@@H]1NC(=O)[C@@H](C)N(C)C(=O)[C@H](Cc2ccccc2)NC(=O)[C@@H](CC(C)C)NC(=O)[C@@H]2CCCN2C(=O)[C@H](CC(C)C)N(C)C1=O has PAMPA 4.2 × 10^-6 cm/s.
CCCN1CC(=O)N(C)[C@H](CC(C)C)C(=O)N[C@H](CC(C)C)C(=O)N2CCC[C@@H]2C(=O)N[C@H](CC(C)C)C(=O)N[C@@H](Cc2ccccc2)C1=O has PAMPA 1.7 × 10^-6 cm/s.
CC(C)C[C@@H]1C(=O)N[C@@H](Cc2ccccc2)CC(=O)N2CCC[C@H]2C(=O)N(C)[C@@H](CC(C)C)C(=O)N[C@@H](Cc2ccccc2)C(=O)N[C@H](C)C(=O)N1C has PAMPA 3.9 × 10^-6 cm/s.
CC(C)C[C@H]1NC(=O)CN(Cc2ccccc2)C(=O)[C@@H](C)N(C)C(=O)[C@@H]2CCCN2C(=O)[C@H](Cc2ccccc2)NC(=O)[C@H](CC(C)C)N(C)C(=O)[C@H]2CCCN2C1=O has PAMPA 4.8 × 10^-6 cm/s.
CC(C)C[C@@H]1C(=O)N(C)[C@@H](CC(C)C)C(=O)N2CCC[C@@H]2C(=O)N(Cc2ccccc2)CC(=O)N[C@@H](Cc2ccccc2)C(=O)N2CCC[C@@H]2C(=O)N[C@@H](C)C(=O)N1C has PAMPA 4.6 × 10^-6 cm/s.
CC(C)C[C@@H]1NC(=O)[C@@H](C)NC(=O)[C@H]2CCCN2C(=O)[C@H](Cc2ccccc2)NC(=O)[C@H](CC(C)C)NC(=O)[C@@H]2CCCN2C(=O)[C@@H](CC(C)C)NC1=O has PAMPA 1.3 × 10^-6 cm/s.
CC(C)C[C@@H]1NC(=O)[C@@H](CC(C)C)NC(=O)[C@H](C)NC(=O)[C@H](Cc2ccccc2)NC(=O)CN(Cc2ccccc2)C(=O)[C@H]2CCCN2C1=O has PAMPA 2.8 × 10^-6 cm/s.